In article PMC8429170 (Cellular and Molecular Life Sciences: CMLS, 2021):

Key:
GPR1 = biological target: T1, GPR1 (Homo sapiens, UniProt P46091); format: cell-based; details: COS-7 cells, GPR1-eYFP and Rluc8-Arr3; at least two independent experiments in quadruplicates
T1 construct: expressed in transfected cells; host or cells: COS-7, transient
Method: Arrestin recruitment was characterized by measuring the bioluminescence resonance energy transfer (BRET) ratio between luciferase-tagged arrestin3 and either GPR1-eYFP or CMKLR1-eYFP as described previously. In brief, COS-7 cells in 75 cm^2 cell culture flasks were transiently transfected overnight with 7800 ng GPR1-eYFP or CMKLR1-eYFP in pVitro2 and 200 ng Rluc8-Arr3 in pcDNA3 using MetafectenePro according to the manufacturer’s protocol. […] For kinetic measurements, cells were stimulated with agonist in buffer or buffer alone, and fluorescence was measured for 20 min using a Tecan Infinite M 200 Reader (Tecan, Männerdorf, Switzerland) using the filter sets Green1 (YFP emission, luminescence 520–570 nm) and Blue1 (luciferase luminescence 370–480 nm). For concentration–response curves, cells were stimulated with agonist or blank, and luminescence was measured after 10 min. BRET signal was calculated as the ratio of fluorescence divided by luminescence, netBRET signal was calculated by subtracting the BRET signal of unstimulated wells from the respective samples.

GPR1-eYFP (human) [1] = biological target: T2, GPR1-eYFP (human) (UniProt P46091)
T2 sequence: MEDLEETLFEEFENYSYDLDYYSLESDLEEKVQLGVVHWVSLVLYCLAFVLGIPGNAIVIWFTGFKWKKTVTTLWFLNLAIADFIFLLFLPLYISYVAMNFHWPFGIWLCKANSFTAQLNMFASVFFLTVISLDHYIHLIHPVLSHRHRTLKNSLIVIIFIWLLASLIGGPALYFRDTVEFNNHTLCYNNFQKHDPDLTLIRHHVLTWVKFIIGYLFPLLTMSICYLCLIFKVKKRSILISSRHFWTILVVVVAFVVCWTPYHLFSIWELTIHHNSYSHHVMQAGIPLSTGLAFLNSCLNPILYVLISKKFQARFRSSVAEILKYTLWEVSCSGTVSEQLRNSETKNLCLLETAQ

GPR1-eYFP (human) [2] = biological target: T2, GPR1-eYFP (human); remark: listed apart in the source

Molecule: C[C@H](NC(=O)[C@@H]1CCCN1C(=O)[C@H](Cc1ccccc1)NC(=O)[C@H](Cc1ccccc1)NC(=O)[C@H](CO)NC(=O)[C@H](Cc1ccc(O)cc1)NC(=O)[C@H](Cc1ccccc1)NC(=O)[C@@H](N)CCC(N)=O)C(=O)NCC(=O)O [scr2C9]
pEC50 ± SEM (GPR1): < 6

Molecule: Chem^149-157 (chemerin-9) (peptide)
EC50 of arrestin3 recruitment to GPR1-eYFP (BRET with Rluc8-Arr3, COS-7 cells) (GPR1-eYFP (human) [1]): 1.9 nM

Molecule: [N–C]-c(chemerin-9) (peptide)
EC50 of arrestin3 recruitment to GPR1-eYFP (BRET) (GPR1-eYFP (human) [2]): 132 nM

Results, then the molecule that gave them:

pEC50 ± SEM (GPR1): < 6
Molecule: C[C@H](NC(=O)[C@H](Cc1ccccc1)NC(=O)[C@H](CCC(N)=O)NC(=O)CNC(=O)[C@@H]1CCCN1)C(=O)N[C@@H](Cc1ccccc1)C(=O)N[C@@H](CO)C(=O)O [Chem^151−157]

pEC50 ± SEM (GPR1): 8.57 ± 0.16
B1: ChemF156 (ligand)
chain: ELTEAQRRGLQVALEEFHKHPPVQWAFQETSVESAVDTPFPAGIFVRLEFKLQQTSCRKRDWKKPECKVRPNGRKRKCLACIKLGSEDKVLGRLVHCPIETQVLREAEEHQETQCLRVQRAGEDPHSFYFPGQFAF

Each block holds one molecule with its values, some of them ahead of it.
